Our source for the GI50 values is US20230357233A1, “HETEROARYL COMPOUNDS, PREPARATION METHODS AND USES THEREOF” (INVENTISBIO CO., LTD., priority 2020, published 2023).

The chains behind the UniProt entries cited, without tags or fusion partners.
UniProt P01116, whole entry G12D: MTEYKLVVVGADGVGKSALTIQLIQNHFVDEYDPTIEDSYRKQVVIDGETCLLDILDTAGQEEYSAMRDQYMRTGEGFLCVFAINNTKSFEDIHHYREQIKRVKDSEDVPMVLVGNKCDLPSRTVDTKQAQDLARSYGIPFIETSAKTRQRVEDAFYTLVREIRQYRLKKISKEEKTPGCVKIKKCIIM

Where two headings read alike, the source gives them in different places.

For this test, the target named is Ba/F3_KRAS^G12D cells (Homo sapiens, UniProt P01116, G12D, cells depend on it). The test can be described thus: Ba/F3 KRAS^G12D cell proliferation assay (cell-titer Glo).
Setting [1] is: read-out: BaF3_KRAS^G12D IC50, cell growth inhibition, treated with the compounds for 3 days, tested form: TFA salt (3 eq).

For `C#Cc1c(F)ccc2cc(O)cc(-c3nc(OCCC4CC4)c4c(N5CC6CCC(C5)N6)ncnc4c3F)c12`, the GI50 (read-out: BaF3_KRAS^G12D IC50, cell growth inhibition, treated with the compounds for 3 days) fell in the range of 500 to 5000 nM.
For `C#Cc1c(F)ccc2cc(O)cc(-c3nc(OC(F)F)c4c(N5CC6CCC(C5)N6)nc(OC[C@@]56CCCN5C[C@H](F)C6)nc4c3F)c12`, the GI50 under setting [1] is under 500 nM.
As for `CC#Cc1c(F)ccc2cc(O)cc(-c3nc(C)c4c(N5CC6CCC(C5)N6)nc(OC[C@@]56CCCN5C[C@H](F)C6)nc4c3F)c12`, the GI50 under setting [1] is under 500 nM.
The same measure, in the same setting: the value for `C#Cc1c(F)ccc2cc(O)cc(-c3nc(OC(C)C)c4c(N5CC6CCC(C5)N6)cc(C(=O)N[C@H](C)CN(C)C)nc4c3F)c12` was under 500 nM; that for `CCOc1c(F)ccc2cc(O)cc(-c3nc(O)c4c(N5CC6CCC(C5)N6)nc(OC[C@@]56CCCN5C[C@H](F)C6)nc4c3F)c12` was 500 to 5000 nM.
